Assays:
Experiment in all cases: MTT assay for cell proliferation
Ba/F3-FLT3-ITD^F691 = assay type: cell-based, Murine; conditions: Mus musculus, 72 h, read-out: IC50(μM) ± SD, tumor cell proliferation
HEL = assay type: cell-based; conditions: Homo sapiens, 72 h, read-out: IC50(μM) ± SD, tumor cell proliferation
Ba/F3-FLT3-ITD^D835V = assay type: cell-based, Murine; conditions: Mus musculus, 72 h, read-out: IC50(μM) ± SD, tumor cell proliferation
Molm-13 = assay type: cell-based; conditions: Homo sapiens, MOLM-13, 72 h, read-out: IC50(μM) ± SD, tumor cell proliferation
Ba/F3-FLT3-ITD = assay type: cell-based, Murine; conditions: Mus musculus, 72 h, read-out: IC50(μM) ± SD, tumor cell proliferation

- IC50 (Ba/F3-FLT3-ITD^F691): > 10 µM
- IC50 (Ba/F3-FLT3-ITD^D835V): > 10 µM
- IC50 (Molm-13): > 10 µM
- IC50 (Ba/F3-FLT3-ITD): > 10 µM
Structure (SMILES): N#CC[C@H](C1CCCC1)n1cc(-c2ncnc3[nH]ccc23)cn1 [Ruxolitinib]
- IC50 (HEL): 1.3 ± 0.89 µM
